The text below walks through data of patent US20050043534A1, “Modulators of ceramidase and methods of used based thereon” (priority 2001, published 2005).

Usually IC50 stands for the concentration at which inhibition is half-maximal. A low value points to greater potency in that assay.

The test system of the test is MCF7 human breast carcinoma cells. The test can be described thus: MTT cell viability assay, MCF7 cells. In kind it is cell-based. To be noted: 18 hours treatment. As for the experimental part:
The cells were contained at 37° C. in a humidified atmosphere containing 5% CO2 overnight. On Day 2, the cells were treated with the compound of interest which was dissolved in 100% ethanol. […] The control is a sample without the compound of interest.

Take `CCCCCCCCCCCCC/C=C/[C@@H](O)[C@H](CO)NC(=O)NCCCCCC` [Urea-C6-ceramide, (2S,3R,4E)-N-[2-(1,3-dihydroxy-4E-octadecene)]-N′-hexane-urea]: the IC50 was found to be 10 µM; the “effect on cell growth and proliferation (in words)” value is “potent inhibitor of cell growth and proliferation”.
